# Literature values as cited in paper PMC7376644 (Pharmacology Research & Perspectives, 2020).
# Settings: PZQ metabolism inhibited by KTZ; cited from earlier work
substance,measurement,value
X‐hydroxy praziquantel [X‐OH PZQ],Reduction of exposure with KTZ,57%
